These are literature values, as cited in patent publication US11890324B2, “Compounds for use in inducing myocardial perfusion recovery” (Epoqe Pharma ApS, priority 2018, dated 2024).

For the data set the following is noted: in vivo; cited from earlier work.

With “N-alpha-[2-(2-{2-[(S)-4-Carboxy-4-(17-carboxyheptadecanoylamino)-butyrylamino]-ethoxy}ethoxy)acetyl](Ser1]alpha-human CGRP peptide [Compound I]”, the “Half-life as compared to CGRP (in words)” value was “increased”.
